Columns and labels:
[1] = system: gastric cancer cell line MKN-28; assay: Nude mouse xenograft trial, MKN-28; conditions: MKN-28 xenograft mice, 40 days
[2] = Particle size distribution by DLS (dynamic light scattering); format: physicochemical
Protocol: In the following examples, elemental analysis of carbon, hydrogen and nitrogen for the compounds of the present invention was performed using Perkin-Elmer C, H and N analyzer. Hydrogen and nitrogen nuclear magnetic resonance spectra were measured using Varian Gemini-500 NMR Spectrometer. The particle size distributions of polyphosphazene carrier polymers and their drug conjugates were measured using Malvem Zeta-sizer (Nano-ZS).

[3] = Pharmacokinetic study after IV injection; format: in vivo, Sprague-Dawley rat; conditions: rat, plasma docetaxel, mean

With “[NP(MPEG550)1.5(LysEt-2′-aconitic-docetaxel)0.5]n [Example 14]” the body weight changes [1] was “no significant body weight changes”, the “mean diameter (particle size distribution)” value ([2]; 0.2% in distilled water, DLS) was 60 nm and the “change of micelle size with temperature” value ([2]; temperature range of 5˜70° C.) was “not changed significantly”. The “time of maximum tumor accumulation post-injection” value (SCC7 tumor cells; Cy5.5 labeled, IV) was 48 h, the “accumulation in tumor versus other organs (fluorescence)” value (SCC7 tumor cells; Cy5.5 labeled, IV, 24 h and 48 h post injection) was “accumulated dominantly in tumor” and the “tumor selectivity compared with polyphosphazene carrier polymer” value (SCC7 tumor cells; quantitative biodistribution, FIG. 8) was “much higher tumor selectivity”. For the same substance, the AUCINF [3] was 1439 ng·h/mL, the AUClast [3] was 1192 ng·h/mL and the C0 [3] was 263 ng/mL. The Cl [3] was 0.984 L/h, the Vz [3] was 7.287 L and the t1/2 [3] was 6.115 h.

Source: patent US11180615B2, “Cationic polyphosphazene compound, polyphosphazenes-drug conjugate compound and method for preparing same” (CNPHARM CO., LTD., priority 2016, dated 2021)
